# Measured values as given in US5183883A, “Conjugate of adriamycin and cyclodextrin” (Mercian Corporation, priority 1990, dated 1993).
# Columns and labels:
# Toxicity test LD50 = type: in vivo; settings: mice, intravenously administered once
# Source text: LD50 given when the adriamycin derivatives of this invention were intravenously administered once in mice is as follows.
# [1] = Sustained release test (adriamycin liberated in phosphoric acid buffer physiological saline); type: physicochemical; settings: about 1 mg in 0.0067 M phosphoric acid buffer physiological saline, initial pH=7.36-7.37, 37° C., HPLC
# Method: One milligram of each of the adriamycin derivatives obtained in Examples 1, 2, 3, 4, 5 and 6 to be described later was dissolved in 0.0067 M phosphoric acid buffer physiological saline solution made by Bioproducts, Inc. (initial pH=7.36-7.37), and the solution was kept at 37° C. The amount of adriamycin liberated in the solution was analyzed by HPLC [column=YMC Pack A-312 S-5 120A ODS; mobile phase=0.05M ammonium formate buffer (pH=4.0):- acetonitrile=7:4, flow rate=1 ml/min; measuring wavelength=254 nm; retention time of adriamycin under the present conditions=3.8 minutes].
# Consequently, a 50 % released time of adriamycin from the adriamycin derivatives is as follows, and sustained release was confirmed.
# mouse leukemia cells = assay: Cytotoxicity test; settings: 48 hours, 37° C., RPMI1640 with 10% horse serum, trypan blue
# Method: 5×10^4 cells/ml of mouse leukemia cells were inoculated in a RPMI1640 culture medium containing 10% horse serum, and the compound of the present invention was added to this such that the final concentration became 0.001 to 10.0 μg/ml. Cultivation was conducted in a carbon dioxide gas incubator (air containing 5% carbon dioxide gas) at 37° C. for 48 hours.
substance,measurement,setting,value
adriamycin-succinic acid-γ-cyclodextrin conjugate [ASC],LD50,Toxicity test LD50; as derivative,200 to 400 mg/kg
same,LD50 as adriamycin,Toxicity test LD50; calculated as adriamycin,50-100 mg/kg as adriamycin
same,50 % released time of adriamycin from the adriamycin derivatives,[1],about 1 hour
same,"Cytotoxicity, IC50",mouse leukemia cells,0.18 µg/mL
